From patent publication US20170275298A1, “INHIBITORS OF THE RENAL OUTER MEDULLARY POTASSIUM CHANNEL” (Merck Sharp & Dohme Corp., priority 2014, published 2017)
Read-outs that look alike come from different tables or passages of the source.

Target: T1, hROMK (hKir1.1) (Homo sapiens, UniProt P48048)
T1 construct: expressed in transfected cells
T1 sequence (P48048 1-391): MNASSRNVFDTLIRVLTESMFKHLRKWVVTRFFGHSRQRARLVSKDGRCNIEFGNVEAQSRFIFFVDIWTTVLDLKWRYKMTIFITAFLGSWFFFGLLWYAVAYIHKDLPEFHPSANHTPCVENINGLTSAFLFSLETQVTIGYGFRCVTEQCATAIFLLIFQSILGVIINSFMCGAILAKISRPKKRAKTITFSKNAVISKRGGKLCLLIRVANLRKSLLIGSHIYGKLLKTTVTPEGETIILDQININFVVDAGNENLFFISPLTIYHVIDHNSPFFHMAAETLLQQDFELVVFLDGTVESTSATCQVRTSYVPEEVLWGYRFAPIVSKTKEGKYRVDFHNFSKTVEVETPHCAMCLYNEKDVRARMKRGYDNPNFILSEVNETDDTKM
Assay: Thallium Flux Assay (ROMK channel functional thallium flux assay)
Assay type: cell-based
Protocol: The following Thallium Flux Assay was performed on each of the final product compounds in the Examples.
HEK293 cells stably expressing hROMK (hKir1.1) were grown at 37° C. in a 10% CO2 humidified incubator in complete growth media: Dulbecco's Modified Eagle Medium supplemented with non-essential amino acids, Penicillin/Streptomycin/Glutamine, G418 and FBS. At >80% confluency, the media was aspirated from the flask and rinsed with 10 mL calcium/magnesium-free PBS. […] To dislodge the cell, the side of the flask was gently banged with one's hand. The cells completely titrated and then the cells were transferred to 25 mL complete media, centrifuged at 1,500 rpm for 6 min followed by resuspension in complete growth media and determine cell concentration. […] Under ideal growth conditions and appropriate tissue culture practices, this cell line is stable for 40-45 passages.
• FluxOR™ Reagent (Component A) • FluxOR™ Assay Buffer (Component B)—10× Concentrate • PowerLoad™ Concentrate (Component C)—100× Concentrate • Probenecid (Component D)—Lyophilized sample is kept at −20° C. Water soluble, 100× after solubilization in 1 mL water. […] Store at 4° C. • Thallium sulfate (Tl2SO4) Concentrate (Component G)—50 mM in water. Store at 4° C. • DMSO (dimethyl sulfoxide, Component H)—1 mL (100%)
Can be stored at room temperature • Stimulant Buffer (prepared at 5× final concentration in 1×FluxOR™ Chloride-Free Buffer): 7.5 mM thallium sulfate and 0.75 mM potassium sulfate (to give a final assay concentration of 3 mM Thallium/0.3 mM potassium). Store at 4° C. when not in use. If kept sterile, this solution is good for months.
The ROMK channel functional thallium flux assay was performed in 384 wells, using the FLIPR-Tetra instrument. HEK-hKir1.1 cells were seeded in Poly-D-Lysine microplates and kept in a 37° C.-10% CO2 incubator overnight. On the day of the experiment, the growth media was replaced with the FluxOR™ reagent loading buffer and incubated, protected from light, at ambient temperature (23-25° C.) for 90 min. The loading buffer was replaced with assay buffer±test compound followed by 30 min incubation at ambient temperature, where the thallium/potassium stimulant was added to the microplate.
1. Seed HEK-hKir1.1 cells (50 μl at 20,000 cells/well) in 384-well PDL coated Microplates 2. Allow cells to adhere overnight in humidified 37° C./10% CO2 incubator 3. Completely remove cell growth media from microplate and replace with 25 μl loading buffer 4. […]
The fluorescence intensity of wells containing 3 μM of a standard control ROMK inhibitor of the present invention was used to define the ROMK-sensitive component of thallium flux. Fluorescence in the presence of test compounds was normalized to control values to provide % fluorescence change.

Row | IC50 (read-out: ROMK TI IC50) | SMILES | IC50
1 |  | Cc1c([C@@H](O)CN2CCC3(CC2)CCN(c2ccns2)C3=O)ccc2c1COC2=O [Example 60, (R)-8-(2-hydroxy-2-(4-methyl-1-oxo-1,3-dihydroisobenzofuran-5-yl)ethyl)-2-(isothiazol-5-yl)-2,8-diazaspiro[4.5]decan-1-one] | 5.2 nM
2 | 340 nM | Cc1c([C@@H](O)CN2CCC3(CC2)CCN(c2cc(-c4ccccc4)ns2)C3=O)ccc2c1COC2=O [Example 62, (R)-8-(2-hydroxy-2-(4-methyl-1-oxo-1,3-dihydroisobenzofuran-5-yl)ethyl)-2-(3-phenylisothiazol-5-yl)-2,8-diazaspiro[4.5]decan-1-one] | 
3 | 130 nM | Cc1c([C@@H](O)CN2CCC3(CC2)CCN(c2ncns2)C3=O)ccc2c1COC2=O [Example 63, (R)-8-(2-hydroxy-2-(4-methyl-1-oxo-1,3-dihydroisobenzofuran-5-yl)ethyl)-2-(1,2,4-thiadiazol-5-yl)-2,8-diazaspiro[4.5]decan-1-one] | 
4 | 46.6 nM | Cc1c([C@@H](O)CN2CCC3(CC2)CCN(c2cnsn2)C3=O)ccc2c1COC2=O [Example 75, (R)-8-(2-hydroxy-2-(4-methyl-1-oxo-1,3-dihydroisobenzofuran-5-yl)ethyl)-2-(1,2,5-thiadiazol-3-yl)-2,8-diazaspiro[4.5]decan-1-one] | 
